Data reported in patent publication US6962931B2, “Self-emulsifying formulations of cholesteryl ester transfer protein inhibitors” (Pfizer Inc., priority 2001, dated 2005).

Assay: Equilibrium solubility in excipients, vehicles and emulsion preconcentrates
Assay type: physicochemical
Details: vehicle Caprylic acid
Description: The solubility of CETP inhibitors in excipients and in formulations was determined by adding an excess of compound to the medium in question. The mixture was agitated by rotation over a period of days at ambient temperature until the concentration in solution had reached an equilibrium as judged by similar measurements for consecutive time points. Concentrations were measured by filtration of aliquots with a PTFE syringe filter and assay by HPLC as described in Example 11.
The solubility of crystalline CETP inhibitors in representative vehicles was determined by adding an excess of compound to the vehicle in question. The mixture was agitated by rotation over a period of days at ambient temperature until the concentration in solution had reached equilibrium as judged by similar measurements for consecutive time points. Concentrations were measured by filtration of aliquots with a PTFE syringe filter and assayed by HPLC.
The concentrations of CETP inhibitor in each vehicle were assayed at intervals by dilution of aliquots into acetonitrile and gradient HPLC analysis on a Water Symmetry C-8 column (3.9×150 mm, 5 micron) at 30° C. at a flow rate of 1 mL/min. […] The detection method was UV absorbance at 210 nm.

Solubility: 145 mgA/ml
SMILES: CCOC(=O)N1c2ccc(C(F)(F)F)cc2[C@@H](N(Cc2cc(C(F)(F)F)cc(C(F)(F)F)c2)C(=O)OC)C[C@H]1CC [Compound A, [2R,4S] 4-[(3,5-bis-trifluoromethyl-benzyl)-methoxycarbonyl-amino]-2-ethyl-6-trifluoromethyl-3,4-dihydro-2H-quinoline-1-carboxylic acid ethyl ester]
